Earlier results on 1 compound are cited in patent US9901577B2, “Oxoquinazolinyl-butanamide derivatives” (MERCK PATENT GMBH, priority 2013, dated 2018).

The series concerns the target T1, TNKS2 (Homo sapiens, UniProt Q9H2K2).
T1 sequence (Q9H2K2 1-1166): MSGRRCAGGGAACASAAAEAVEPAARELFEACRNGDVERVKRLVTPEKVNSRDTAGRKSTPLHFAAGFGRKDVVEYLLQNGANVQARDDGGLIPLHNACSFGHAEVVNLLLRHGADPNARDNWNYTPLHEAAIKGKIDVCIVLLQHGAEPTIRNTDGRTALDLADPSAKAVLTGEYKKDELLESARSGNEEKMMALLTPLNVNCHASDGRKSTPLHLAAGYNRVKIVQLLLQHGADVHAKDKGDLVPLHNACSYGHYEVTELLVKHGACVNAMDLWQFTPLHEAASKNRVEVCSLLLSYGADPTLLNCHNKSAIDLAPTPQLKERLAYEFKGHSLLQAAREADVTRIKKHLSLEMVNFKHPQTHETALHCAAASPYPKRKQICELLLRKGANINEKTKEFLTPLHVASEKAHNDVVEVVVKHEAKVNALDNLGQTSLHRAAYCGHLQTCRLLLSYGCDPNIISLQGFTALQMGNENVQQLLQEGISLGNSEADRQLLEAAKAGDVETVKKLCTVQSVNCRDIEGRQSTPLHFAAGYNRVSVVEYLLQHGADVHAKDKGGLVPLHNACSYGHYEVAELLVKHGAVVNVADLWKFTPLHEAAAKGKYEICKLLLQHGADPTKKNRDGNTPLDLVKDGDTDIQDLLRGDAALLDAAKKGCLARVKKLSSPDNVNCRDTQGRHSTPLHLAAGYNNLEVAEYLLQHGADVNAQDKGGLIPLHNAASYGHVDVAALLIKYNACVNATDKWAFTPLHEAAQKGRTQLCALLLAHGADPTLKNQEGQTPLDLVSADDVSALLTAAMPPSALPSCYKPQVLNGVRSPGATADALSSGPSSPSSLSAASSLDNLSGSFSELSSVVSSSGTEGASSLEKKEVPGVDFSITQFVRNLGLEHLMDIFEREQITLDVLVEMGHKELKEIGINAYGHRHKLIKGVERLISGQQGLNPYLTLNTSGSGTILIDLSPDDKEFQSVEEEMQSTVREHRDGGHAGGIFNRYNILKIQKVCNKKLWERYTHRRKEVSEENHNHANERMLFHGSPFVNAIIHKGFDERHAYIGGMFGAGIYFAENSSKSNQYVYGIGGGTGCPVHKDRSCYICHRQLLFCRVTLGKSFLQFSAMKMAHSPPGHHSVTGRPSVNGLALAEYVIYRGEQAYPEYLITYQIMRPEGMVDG
Conditions: literature data; cited from earlier work.

A word on the IC50: it is the point on the concentration scale where inhibition reaches its midpoint. Consider `O=c1[nH]c(-c2ccc(C(F)(F)F)cc2)nc2ccccc12`, for which the IC50 was 0.022 µM.
